Laboratory results published in patent US20090318351A1, “METHOD OF TREATING ACUTE ST-ELEVATION MYOCARDIAL INFARCTION WITH A DELTA PKC ANTAGONIST” (priority 2008, published 2009).

System: patients with acute anterior STEMI
Assay: DELTA MI trial: intracoronary KAI-9803 during primary PCI for acute anterior STEMI
Details: intracoronary injection during primary PCI for STEMI
Procedure: Safety and biomarker end points were assessed.
The following example is a clinical treatment of acute ST-elevation myocardial infarction (STEMI) using the compositions and methods provided in the invention.
Patients were recommended to receive aspirin (162-325 mg orally), a thienopyridine loading dose (clopidogrel 300-600 mg or ticlopidine 500 mg), unfractionated heparin, and glycoprotein IIb-IIIa inhibitors during PCI. […] After verifying the final angiographic inclusion criteria during diagnostic angiography, randomization and study drug preparation occurred in the catheterization laboratory before the beginning of the PCI procedure.
Study drug was reconstituted into a clear solution at 1 of 4 concentrations using serial dilutions with 0.9% sodium chloride solution. Study drug was administered during PCI in the following sequence. First, the guidewire was passed across the obstruction in the left anterior descending (LAD) infarct vessel and an over-the-wire balloon catheter was positioned at the level of the obstruction. Second, the guidewire was removed, and dilute contrast was injected to confirm positioning of the catheter tip downstream from the obstruction and to assess patency of the distal vessel. […] Fourth, the guidewire was readvanced through the catheter into the distal vessel, and the balloon was deflated. […]

Q: `CC(C)C[C@H](NC(=O)[C@H](CO)NC(=O)CNC(=O)[C@H](CC(C)C)NC(=O)[C@H](CCC(=O)O)NC(=O)[C@H](Cc1ccc(O)cc1)NC(=O)[C@H](CO)NC(=O)[C@H](CC(N)=O)NC(=O)[C@H](Cc1ccccc1)NC(=O)[C@H](CO)NC(=O)[C@@H](N)CSSC[C@H](N)C(=O)N[C@@H](Cc1ccc(O)cc1)C(=O)NCC(=O)N[C@@H](CCCNC(=N)N)C(=O)N[C@@H](CCCCN)C(=O)N[C@@H](CCCCN)C(=O)N[C@@H](CCCNC(=N)N)C(=O)N[C@@H](CCCNC(=N)N)C(=O)N[C@@H](CCC(N)=O)C(=O)N[C@@H](CCCNC(=N)N)C(=O)N[C@@H](CCCNC(=N)N)C(=O)N[C@@H](CCCNC(=N)N)C(=O)O)C(=O)O` [KAI-9803] was tested. Which “safety and tolerability profile” value did it give?
A: The value was “acceptable safety and tolerability profile”.
